{"source": "patent US6177441A", "about": "“Treating red blood cell solutions with anti-viral agents” (Cerus Corporation, priority 1998, dated 2001)", "key": {"R17 [1]": {"tested_on": "R17", "assay": "Kinetics of R17 inactivation by QM with NAC quench (Example 3)"}, "R17 [2]": {"tested_on": "R17", "assay": "R17 inactivation in red blood cells, QM vs chlorambucil (Example 10)", "format": "cell-based, bacteriophage R17", "settings": "all concentrations (10-300 μg/ml), 4° C. overnight"}, "R17 [3]": {"tested_on": "R17", "assay": "R17 phage inactivation by QM in Adsol or DMSO, red blood cells (Example 1)", "settings": "30% Htc"}, "R17 [4]": {"tested_on": "R17", "assay": "R17 inactivation by QM after pre-incubation in Adsol, red blood cells or with Amberlite XAD-16 (Example 5)"}, "red blood cells": {"tested_on": "red blood cells", "settings": "80 μg/ml, high dose biotin label; untreated 93.5"}, "R17 [5]": {"tested_on": "R17", "assay": "Loss of QM anti-viral activity on pre-incubation in Adsol; light controls (Example 4)"}, "R17 [6]": {"tested_on": "R17", "assay": "R17 inactivation by QM as a function of hematocrit (Example 2)", "settings": "QM 1.0 μg/ml"}}}
{"smiles": "COc1ccc2nc3cc(Cl)ccc3c(NC(C)CCCN(CCCl)CCCl)c2c1.Cl.Cl", "note": "(stereo not drawn)", "values": [{"measurement": "Log Titer", "setting": "R17 [1]; QM first, NAC quench at 0 min, dilute", "value": 8.11}, {"measurement": "Log Titer", "setting": "R17 [1]; QM first, NAC quench at 2 min, dilute", "value": 6.81}, {"measurement": "Log Titer", "setting": "R17 [1]; QM first, NAC quench at 4 min, dilute", "value": 5.79}, {"measurement": "Log Titer", "setting": "R17 [1]; QM first, NAC quench at 8 min, dilute", "value": 4.10}, {"measurement": "Log Titer", "setting": "R17 [1]; QM first, NAC quench at 16 min, dilute", "value": 3.74}, {"measurement": "Log Titer", "setting": "R17 [1]; QM first, NAC quench at 32 min, dilute", "value": 2.69}, {"measurement": "Log Titer", "setting": "R17 [1]; QM first, NAC quench at 64 min, dilute", "value": 2.39}, {"measurement": "Log Titer", "setting": "R17 [1]; QM first, NAC quench at 128 min, dilute", "value": "≤ 2.4"}, {"measurement": "Log Titer", "setting": "R17 [1]; first add NAC, then QM, dilute", "value": 8.66}, {"measurement": "Log Titer", "setting": "R17 [1]; first add NAC, then QM, dilute at end", "value": 6.32}, {"measurement": "R17 inactivation", "setting": "R17 [2]", "value": "≥ 8.4", "unit": "logs/ml"}, {"measurement": "Log Titer", "setting": "R17 [3]; QM 2.5 μg/ml, solvent DMSO", "value": 5.2}, {"measurement": "Log Titer", "setting": "R17 [3]; QM 5 μg/ml, solvent DMSO", "value": 2.3}, {"measurement": "Log Titer", "setting": "R17 [3]; QM 10 μg/ml, solvent DMSO", "value": 2.4}, {"measurement": "Log Titer", "setting": "R17 [3]; QM 20 μg/ml, solvent Adsol", "value": 1.3}, {"measurement": "Log Titer", "setting": "R17 [4]; QM-Adsol, 0 min, untreated 9.7", "value": 2.9}, {"measurement": "Log Titer", "setting": "R17 [4]; QM-Adsol, 240 min", "value": 3.7}, {"measurement": "Log Titer", "setting": "R17 [4]; QM-RBC, 0 min", "value": 2.8}, {"measurement": "Log Titer", "setting": "R17 [4]; QM-RBC, 60 min", "value": 7.1}, {"measurement": "Log Titer", "setting": "R17 [4]; QM-RBC, 240 min", "value": 9.7}, {"measurement": "Log Titer", "setting": "R17 [4]; QM-XAD (RBC + XAD-16), 15 min", "value": 7.9}, {"measurement": "Log Titer", "setting": "R17 [4]; QM-XAD (RBC + XAD-16), 30 min", "value": 9.1}, {"measurement": "Log Titer", "setting": "R17 [4]; QM-XAD (RBC + XAD-16), 60 min", "value": 9.6}, {"measurement": "Log Titer", "setting": "R17 [4]; QM-XAD (RBC + XAD-16), 120 min", "value": 9.8}, {"measurement": "Log Titer", "setting": "R17 [4]; QM-XAD (RBC + XAD-16), 240 min", "value": 9.8}, {"measurement": "% RECOVERY, HIGH", "setting": "red blood cells", "value": 91.2, "unit": "%"}, {"measurement": "Log Titer", "setting": "R17 [5]; QM 0 min pre-incubation, dark", "value": 3.8}, {"measurement": "Log Titer", "setting": "R17 [5]; QM 10 min pre-incubation, dark", "value": 3.9}, {"measurement": "Log Titer", "setting": "R17 [5]; QM 40 min pre-incubation, dark", "value": 3.9}, {"measurement": "Log Titer", "setting": "R17 [5]; QM 2 hour pre-incubation, dark", "value": 4.8}, {"measurement": "Log Titer", "setting": "R17 [5]; QM + light (not wrapped in foil), time 0, control 9.7", "value": 3.9}, {"measurement": "Log Titer", "setting": "R17 [6]; Htc 3%", "value": 2.1}, {"measurement": "Log Titer", "setting": "R17 [6]; Htc 10%", "value": 2.6}, {"measurement": "Log Titer", "setting": "R17 [6]; Htc 30%", "value": 2.4}]}
{"smiles": "CCN(CC)CCCC(C)Nc1c2ccc(Cl)cc2nc2ccc(OC)cc12", "note": "(stereo not drawn) [quinacrine]", "values": [{"measurement": "Log Titer", "setting": "R17 [5]; quinacrine + light, control 9.7", "value": 9.7}, {"measurement": "Log Titer", "setting": "R17 [5]; quinacrine in foil, control 9.7", "value": 9.7}]}
